Target: hα7-wt nAChR (Homo sapiens, UniProt P36544)
Assay: Ca2+ flux imaging (FDSS) (Protocol B), PAM activity with choline as agonist
Description: • Hanks buffered saline solution (HBSS, Invitrogen, Belgium), supplemented with 10 mM HEPES (Invitrogen, Belgium), CaCl2 to a final concentration of 5 mM, 0.1% Bovine serum albumin (Sigma-Aldrich NV, Belgium). b) Calcium-Sensitive Dye—Fluo-4AM • Fluo-4AM (Molecular Probes, USA) was dissolved in DMSO containing 10% Pluronic acid (Molecular Probes, USA) to give a stock solution which was diluted in assay buffer supplemented with 5 mM probenicid (Sigma, Aldrich NV, Belgium) to give a final concentration of 2 μM. c) 384-Well Plates • Black 384 well plate black/clear plates, PDL pre-coated (Corning, Incorporated, USA) d) Calcium Flux Measurement
A Functional drug screening system (FDSS, Hamamatsu) was used to measure intracellular free-calcium flux signals. […]
PAM activity was detected in real time by applying the compounds to be tested to the loaded cells along with a α7 nicotinic receptor agonist during constant monitoring of cellular fluorescence in a FDSS. […]
A control response to choline was calculated on each plate from the difference in peak in fluorescence in wells receiving either choline or assay buffer alone. […] The compounds also have a potentiating effect on the response to choline when measured by whole-cell patch clamp electrophysiology in GH4C1 cells stably over-expressing the human wild-type α7 receptor.

Protein sequences, listed by entry. Tags and fused reporters are not part of them. Residues count along the entry.
UniProt P36544, 23-502 limits assumed: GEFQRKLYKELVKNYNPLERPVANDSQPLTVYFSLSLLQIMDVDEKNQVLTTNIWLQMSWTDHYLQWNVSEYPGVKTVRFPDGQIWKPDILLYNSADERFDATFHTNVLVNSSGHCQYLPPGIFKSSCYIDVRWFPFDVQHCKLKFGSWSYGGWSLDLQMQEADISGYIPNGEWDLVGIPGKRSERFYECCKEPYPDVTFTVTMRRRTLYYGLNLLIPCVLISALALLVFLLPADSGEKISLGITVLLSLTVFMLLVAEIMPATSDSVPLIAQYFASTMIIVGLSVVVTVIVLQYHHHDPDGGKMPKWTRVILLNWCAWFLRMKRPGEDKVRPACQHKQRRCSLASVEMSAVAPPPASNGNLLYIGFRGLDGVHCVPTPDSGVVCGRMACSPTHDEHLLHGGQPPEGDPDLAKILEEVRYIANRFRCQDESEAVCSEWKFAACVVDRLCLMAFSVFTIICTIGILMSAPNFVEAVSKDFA

For `Cc1cc(C(=O)NCCn2nc(Nc3ccc(F)c(C(F)(F)F)c3)nc2-c2ccnc(Cl)c2)no1`, the “% efficacy” value was 735% and the pEC50 ("<5" = no top plateau at maximal concentration) was 6.0.

From patent US8143419B2, “Trisubstituted 1,2,4-triazoles” (Janssen Pharmaceutica N. V., priority 2006, dated 2012)
